# Measured melting point values of organic chemicals

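OPERA's authors assembled the values from existing databases and did not measure them anew. A listed value is a point estimate from one report or more. How each value was measured is not recorded, so precision varies. The measured form (salt, isomer or mixture) is not always the one drawn. Some upstream entries may be estimates or bounds without being marked so.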

Melting points are in °C.
"via" names the databases from which the curators took the value.

structure (SMILES)	melting point (°C)	via
Cc1cc(N)ccc1N1CCCC1=O	160	OCHEM
CCOC(=O)Nc1ccc2nn(C3CCCC3)nc2c1	122	OCHEM
Cc1n[nH]c(C)c1CC(=O)O	153	OCHEM
Cc1occc1-c1n[nH]c(=S)n1C	119	OCHEM
O=C1CCc2cc(C(=O)CCl)ccc2N1	213	OCHEM
COc1ccc2[nH]c(=O)c(C(=O)O)cc2c1	310	OCHEM
COc1ccc(NCc2cccs2)cc1	72	OCHEM
Cl.Nc1c(OCCO)nn2ccccc12	220	eChemPortal
CCOC(=O)c1ccc2sc3ccccc3c(=O)c2c1	128.5	eChemPortal
Cc1cc(C)c(NC(=O)CCl)c(C)c1	155	OCHEM
N#CCC(=O)c1ccc2c(c1)OCO2	135	OCHEM
c1ccc2nc3c(ccc4ccccc43)cc2c1	132	OCHEM, PubChem
CC(C)Sc1ncccc1CCC(F)(F)F	24.8	eChemPortal
COC(=O)c1cc(CO)nn1-c1ncccc1Cl	102.5	eChemPortal
Cc1c2ccccc2c(CBr)c2ccc3ccccc3c12	152.5	PubChem
Cc1ccc(C(N)=O)cc1N=Nc1c(O)c(C(=O)Nc2ccccc2)cc2ccccc12	250.6	eChemPortal
CN(C)C(=O)CN1CCNCC1	36	OCHEM
CNc1ccc(C(O)(c2ccc(N(C)C)cc2)c2ccc(N(C)C)cc2)cc1	160	eChemPortal
CC(=O)Oc1ccccc1C(=O)OCC(=O)N(C)CC(N)=O	132	OCHEM
N=C(CCl)NO	85	OCHEM
CCCCCCCCCCCC(=O)OCC(C)(C)C=O	15.45	eChemPortal
COC(=O)C(Cc1c[nH]c2ccccc12)NC(=O)CCl (stereo not drawn)	131	OCHEM
O=c1c(-c2ccccc2)coc2cc(O)ccc12	202	OCHEM
N#CCC(=O)N1CCN(c2ccccc2)CC1	133	OCHEM
CN[C@@H](C)c1cccc(O)c1	167.6	eChemPortal
CON=C1COc2ccccc21	28.1	eChemPortal
CC(C)CN(CC(C)C)C(=S)SSC(=S)N(CC(C)C)CC(C)C	70.5	eChemPortal
O=Cc1ccc(-c2ccc(F)cc2)o1	80	OCHEM
CCN(CC(=O)O)C(=O)OC(C)(C)C	87.5	OCHEM
CCNc1ccc(Br)cn1	68	OCHEM
FC(F)=C(F)C(F)(F)OC(F)(F)C(F)(F)C(F)(F)F	-83.5	eChemPortal
NC(=O)c1cc(F)ccc1N	144	OCHEM
CCCCC(CC)COC(=O)c1ccc(Nc2nc(Nc3ccc(C(=O)NC(C)(C)C)cc3)nc(Nc3ccc(C(=O)OCC(CC)CCCC)cc3)n2)cc1 (stereo not drawn)	89.5	eChemPortal
CCc1ccc(-c2csc(N)n2)cc1	121	OCHEM
COC(=O)c1nc(Cl)ccc1Cl	54	OCHEM
O=C(O)C1CC(=O)N(c2cccc(Cl)c2)C1 (stereo not drawn)	134	OCHEM
COc1cccc(-n2cn[nH]c2=S)c1	168	OCHEM
CCn1nc(C(C)C)cc1C(=O)O	116	OCHEM
O=Cc1sc2ccccc2c1Cl	105	OCHEM
O=C(O)C1CCCCN1C(=O)c1ccccc1 (stereo not drawn)	129	OCHEM
CC(=O)OC(OC(C)=O)c1ccc(S(=O)(=O)Cl)cc1	110	OCHEM
CN(C)c1ccc(C=O)s1	66	OCHEM
CC(C)NS(=O)(=O)c1ccc(N)cc1	113	OCHEM
C[Si](C)(CCC(F)(F)C(F)(F)C(F)(F)C(F)(F)C(F)(F)C(F)(F)C(F)(F)C(F)(F)F)O[Si](C)(C)CCC(F)(F)C(F)(F)C(F)(F)C(F)(F)C(F)(F)C(F)(F)C(F)(F)C(F)(F)F	-2.5	ChemicalBook
Cc1c(-c2ccccc2)nc2ccccc2c1C(=O)O	236	OCHEM
O=C(O)C=Cc1ccc(Br)cc1F	218.5	OCHEM
NS(=O)(=O)c1ccc(Cl)nc1	155	OCHEM
CN(C)c1ccc(C(O)(c2ccc(N(C)C)cc2)c2ccc(N(C)C)cc2)cc1	180	eChemPortal
CC(=O)NCC(N)=O	142	OCHEM
CCCCCC1CCC(C2CCC(CCC)CC2)CC1 (stereo not drawn)	96	eChemPortal
Cc1c(N=C=S)c(=O)n(-c2ccccc2)n1C	146	OCHEM

Again, the 4 entries with the lowest melting point:

{"smiles": "FC(F)=C(F)C(F)(F)OC(F)(F)C(F)(F)C(F)(F)F", "melting point (°C)": "-83.5", "via": "eChemPortal"}
{"smiles": "C[Si](C)(CCC(F)(F)C(F)(F)C(F)(F)C(F)(F)C(F)(F)C(F)(F)C(F)(F)C(F)(F)F)O[Si](C)(C)CCC(F)(F)C(F)(F)C(F)(F)C(F)(F)C(F)(F)C(F)(F)C(F)(F)C(F)(F)F", "melting point (°C)": "-2.5", "via": "ChemicalBook"}
{"smiles": "CCCCCCCCCCCC(=O)OCC(C)(C)C=O", "melting point (°C)": "15.45", "via": "eChemPortal"}
{"smiles": "CC(C)Sc1ncccc1CCC(F)(F)F", "melting point (°C)": "24.8", "via": "eChemPortal"}

Source: data files of OPERA 2.9 (Mansouri et al.), github.com/kmansouri/OPERA.